In patent US20260049140A1:

How the values were obtained:
biotinylated EGFR [1] = molecular target: biotinylated EGFR (UniProt P00533); experiment: ELISA, biotinylated EGFR captured on neutravidin coated plates, HRP secondary antibody, OD 450 nm; PC treated with MMP9
biotinylated EGFR [2] = molecular target: biotinylated EGFR (UniProt P00533); experiment: ELISA, biotinylated EGFR captured on neutravidin plates; PC treated with MMP9
biotinylated CD3 [3] = molecular target: biotinylated CD3 (UniProt P07766); experiment: ELISA, biotinylated CD3 captured on neutravidin coated plates, HRP secondary antibody, OD 450 nm; PC treated with MMP9
biotinylated CD3 [4] = molecular target: biotinylated CD3 (UniProt P07766); experiment: ELISA, biotinylated CD3 captured on neutravidin coated plates, HRP secondary antibody, OD 450 nm; PC treated with MTSP1
biotinylated EGFR [5] = molecular target: biotinylated EGFR (UniProt P00533); experiment: ELISA, biotinylated EGFR captured on neutravidin plates; PC treated with MTSP1; PC-54 treated with MTSP1
biotinylated EGFR [6] = molecular target: biotinylated EGFR (UniProt P00533); experiment: ELISA, biotinylated EGFR captured on neutravidin coated plates, HRP secondary antibody, OD 450 nm; PC treated with MTSP1
biotinylated CD3 [7] = molecular target: biotinylated CD3 (UniProt P07766); experiment: ELISA, biotinylated CD3 captured on neutravidin plates; PC treated with MMP9
biotinylated CD3 [8] = molecular target: biotinylated CD3 (UniProt P07766); experiment: ELISA, biotinylated CD3 captured on neutravidin plates; PC treated with MTSP1
biotinylated EGFR [9] = molecular target: biotinylated EGFR (UniProt P00533); experiment: ELISA, biotinylated EGFR captured on neutravidin plates; PC treated with MTSP1

Substance | EC50 (read off the curve) (biotinylated CD3 [3]) [nM] | EC50 (read off the curve) (biotinylated CD3 [4]) [nM] | EC50 (read off the curve) (biotinylated EGFR [6]) [nM] | further results
PC-54 + MMP9 (bispecific antibody; other documents disagree on this pair) | 8 | – | – | EC50 (read off the curve) (biotinylated EGFR [1]): 0.4 nM; EC50 (biotinylated EGFR [2]): 0.3 nM
PC-54 + MTSP1 (bispecific antibody; other documents disagree on this pair) | – | 40 | 0.3 | EC50 (biotinylated EGFR [5]): 0.3 nM
PC-56 + MMP9 (bispecific antibody; other documents disagree on this pair) | 0.4 | – | – | EC50 (biotinylated CD3 [7]): 0.3 nM
PC-56 + MTSP1 (bispecific antibody; other documents disagree on this pair) | – | 0.5 | 0.3 | EC50 (biotinylated CD3 [8]): 0.5 nM; EC50 (biotinylated EGFR [9]): 0.3 nM
